Results from paper PMC3100590 (Journal of medicinal chemistry, 2011).

Sequences of proteins named here, by UniProt entry; tags and fusion partners are left off. A change or cut given only in a name is not applied to a line headed by its entry.
UniProt P35462, whole entry: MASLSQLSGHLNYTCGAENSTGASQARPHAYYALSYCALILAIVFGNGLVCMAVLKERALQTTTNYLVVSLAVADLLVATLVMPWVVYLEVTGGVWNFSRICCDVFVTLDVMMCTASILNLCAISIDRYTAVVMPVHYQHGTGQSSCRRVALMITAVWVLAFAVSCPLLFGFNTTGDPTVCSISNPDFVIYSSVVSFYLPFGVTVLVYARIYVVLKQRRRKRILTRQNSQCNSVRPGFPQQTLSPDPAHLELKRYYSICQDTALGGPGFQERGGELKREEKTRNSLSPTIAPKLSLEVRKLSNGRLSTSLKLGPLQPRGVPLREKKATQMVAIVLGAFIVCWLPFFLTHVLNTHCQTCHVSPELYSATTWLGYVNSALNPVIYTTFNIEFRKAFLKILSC

Target: human D3 dopamine receptor (D3R) (Homo sapiens, UniProt P35462)
Type: binding
Conditions: read-out: D3R Ki ± S.E.M.; Table 2; HEK 293 hD3R, 125I-IABN

“N-(Benzo[b]thiophen-2-ylmethyl)-4-(4-(2,3-dichlorophenyl)piperazin-1-yl)-N-propylbutan-1-amine [Compound 13b]” was tested. Which Ki did it give?
Its Ki is 101 ± 27 nM.
